Values quoted from earlier work, collected in patent US4629793A, “2,3-di-substituted-5,6-dihydroimidazo [2,1-b] thiazole, its salts, production thereof and anti-inflammatory agent containing the same” (Toyo Jozo Kabushiki Kaisha, priority 1981, dated 1986).

Tested on: bovine serum albumin
Conditions: known agents, stated "in general"; cited from earlier work

## O=P1(N(CCCl)CCCl)NCCCO1 (stereo not shown) [cyclophosphamide]
  effect on heat denaturation of bovine serum albumin: do not inhibit the heat denaturation of bovine serum albumin but rather stimulate the protein heat denaturation
